Data published in ChEMBL document CHEMBL1149497, “Complexes of alkylene-linked tacrine dimers with Torpedo californica acetylcholinesterase: Binding of Bis5-tacrine produces a dramatic rearrangement in the active-site gorge” (J Med Chem, 2006).

Tests used:
Butyrylcholinesterase = Butyrylcholinesterase (Rattus norvegicus, UniProt Q9JKC1)
Acetylcholinesterase = Acetylcholinesterase (Rattus norvegicus, UniProt P37136)

Compound	IC50 (Butyrylcholinesterase) [nM]	IC50 (Acetylcholinesterase) [nM]
c1ccc2c(NCCNc3c4c(nc5ccccc35)CCCC4)c3c(nc2c1)CCCC3	102	711
c1ccc2c(NCCCCCCCCCNc3c4c(nc5ccccc35)CCCC4)c3c(nc2c1)CCCC3	155	31
c1ccc2c(NCCCNc3c4c(nc5ccccc35)CCCC4)c3c(nc2c1)CCCC3	152	
c1ccc2c(NCCCCNc3c4c(nc5ccccc35)CCCC4)c3c(nc2c1)CCCC3	252	157
